Results on 1 compound are retold here after BindingDB's records for 22319196.

Amino acid sequences for entries named in this document (tags omitted).
UniProt O75762, whole entry, looked up: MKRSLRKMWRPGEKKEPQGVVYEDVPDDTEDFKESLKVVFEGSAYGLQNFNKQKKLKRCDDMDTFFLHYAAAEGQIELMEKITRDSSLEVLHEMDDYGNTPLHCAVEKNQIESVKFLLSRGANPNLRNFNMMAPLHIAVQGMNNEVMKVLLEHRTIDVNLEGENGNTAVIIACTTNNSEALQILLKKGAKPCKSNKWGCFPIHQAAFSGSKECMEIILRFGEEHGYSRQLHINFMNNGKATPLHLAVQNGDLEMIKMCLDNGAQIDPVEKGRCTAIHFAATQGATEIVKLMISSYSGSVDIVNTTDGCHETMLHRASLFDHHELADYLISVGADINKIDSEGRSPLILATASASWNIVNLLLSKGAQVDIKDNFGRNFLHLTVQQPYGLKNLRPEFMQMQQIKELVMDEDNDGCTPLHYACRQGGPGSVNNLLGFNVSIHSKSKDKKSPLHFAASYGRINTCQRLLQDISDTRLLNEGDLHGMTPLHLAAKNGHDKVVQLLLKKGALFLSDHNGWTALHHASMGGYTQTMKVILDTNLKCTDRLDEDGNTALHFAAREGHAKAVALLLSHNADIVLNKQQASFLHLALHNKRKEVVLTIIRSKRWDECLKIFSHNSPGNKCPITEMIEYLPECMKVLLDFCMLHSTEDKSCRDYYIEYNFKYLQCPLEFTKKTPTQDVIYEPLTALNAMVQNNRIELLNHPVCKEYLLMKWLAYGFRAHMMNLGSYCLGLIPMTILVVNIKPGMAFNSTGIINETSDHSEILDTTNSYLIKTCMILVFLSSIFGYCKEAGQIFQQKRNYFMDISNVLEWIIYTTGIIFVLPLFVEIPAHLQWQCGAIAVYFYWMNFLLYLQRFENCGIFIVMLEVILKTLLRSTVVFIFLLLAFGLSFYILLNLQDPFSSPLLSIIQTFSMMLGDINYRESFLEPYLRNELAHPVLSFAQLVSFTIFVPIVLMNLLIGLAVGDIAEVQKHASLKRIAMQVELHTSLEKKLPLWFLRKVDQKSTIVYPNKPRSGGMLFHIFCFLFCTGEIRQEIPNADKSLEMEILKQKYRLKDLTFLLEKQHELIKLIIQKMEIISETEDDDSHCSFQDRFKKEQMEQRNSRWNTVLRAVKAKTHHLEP

Experiment [1] concerns the target Transient receptor potential cation channel subfamily A member 1 (Homo sapiens, UniProt O75762). The experiment is described as follows: Agonist activity at full length human TRPA1 transfected in HEK293F cells assessed as increase in Ca2+ influx by FLIPR calcium assay.
Experiment [2] concerns the target Transient receptor potential cation channel subfamily A member 1 (UniProt A0A1D5QMT1). The experiment is described as follows: Agonist activity at rhesus monkey TRPA1 transfected in HEK293F cells assessed as increase in Ca2+ influx by FLIPR calcium assay.

pEC50: −log10 of the molar value.

`O=[N+]([O-])c1cc([N+](=O)[O-])c(O)c([N+](=O)[O-])c1`: the pEC50 is 3.97 in experiment [1] and < 3.52 in experiment [2].
